In publication PMC10293653 (International Journal of Biological Macromolecules, 2023):

Target: Mpro of SARS-CoV-2 (Severe acute respiratory syndrome coronavirus 2, UniProt P0DTD1)
Assay: Main protease
Assay type: biochemical
Conditions: 5uM

How did the “inhibition of Mpro” value turn out when `CC(C)(C)OC(=O)Nc1cccn([C@@H](CC2CC2)C(=O)N[C@@H](C[C@@H]2CCNC2=O)C(=O)C(=O)NCc2ccccc2)c1=O` [Mpro-13b] was run?
The value was greater than 80%.
